Measurements: ChEMBL document CHEMBL3872252, “New bithiazolyl hydrazones: Novel synthesis, characterization and antitubercular evaluation” (Bioorg Med Chem Lett, 2017)

What was measured:
[1] = Selectivity index, ratio of GI50 for human MCF7 cells to MIC90 for Mycobacterium tuberculosis H37Ra ATCC 25177 dormant stage; format: toxicity, cell-based; settings: read-out: Selectivity Index
Outline: (§1)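 Cytotoxicity was measured on human MCF-7, HCT116 and THP-1 cells by MTT assay, with paclitaxel as reference. GI50 is the concentration inhibiting 50% of cell growth. The selectivity index is GI50 for the given cell line divided by MIC90 for the given mycobacterial strain and stage.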

[2] = Selectivity index, ratio of GI50 for human HCT116 cells to MIC90 for Mycobacterium tuberculosis H37Ra ATCC 25177 dormant stage; format: toxicity, cell-based, HCT-116; settings: read-out: Selectivity Index; outline: as §1

CO[C@H]1/C=C/O[C@@]2(C)Oc3c(C)c(O)c4c(O)c(c(/C=N/N5CCN(C)CC5)c(O)c4c3C2=O)NC(=O)/C(C)=C\C=C\[C@H](C)[C@H](O)[C@@H](C)[C@@H](O)[C@@H](C)[C@H](OC(C)=O)[C@@H]1C [RIFAMPIN] showed a selectivity ratio [1] of 133 and a selectivity ratio [2] of 133.
